We go through one substance from patent EP4847524A2, “FATTY ACID CONJUGATED CYCLIC PEPTIDES” (dated 2026).

Sequences of proteins named here, by UniProt entry; tags and fusion partners are left off. Residues count along the entry.
UniProt P34998, 24-415 limits assumed: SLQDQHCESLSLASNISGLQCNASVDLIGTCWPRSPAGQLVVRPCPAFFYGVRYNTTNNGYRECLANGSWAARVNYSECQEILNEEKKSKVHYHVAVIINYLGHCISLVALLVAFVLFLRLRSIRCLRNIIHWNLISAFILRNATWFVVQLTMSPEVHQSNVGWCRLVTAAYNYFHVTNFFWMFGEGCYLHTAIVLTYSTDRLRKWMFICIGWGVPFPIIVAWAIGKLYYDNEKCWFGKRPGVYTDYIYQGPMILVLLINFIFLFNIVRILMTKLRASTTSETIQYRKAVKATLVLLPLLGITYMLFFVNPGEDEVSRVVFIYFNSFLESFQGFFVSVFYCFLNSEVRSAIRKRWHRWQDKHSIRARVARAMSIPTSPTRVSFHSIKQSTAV

Where two headings read alike, the source gives them in different places.

The target in one series is hCRF-R1 (Homo sapiens, UniProt P34998). In words: cAMP assay (HitHunter), antagonist IC50 in CHO-K1 hCRF-R1 cells, with or without BSA. The protocol:
Human CHO-KI CRF-R1 (hCRF-R1; Catalog # 95-0047C2) and human CHO-K1 CRF2 (hCRF-R2; Catalog # 95-0048C2) cell lines were purchased from Eurofins.
CHO-K1 Complete Media: DMEM Version (complete medium):Dulbecco's Minimal Essential Media with High Glucose, 4.5% (DMEM-HG), 10% [vol] U.S. Sourced, Certified Fetal Bovine Serum (FBS), and 1X [standard mammalian cell culture concentration] of the following: L-Glutamine, Non-Essential Amino Acids, Hepes Buffer (10 mM final concentration) and a standard antibiotic/antimycotic mix (penicillin, streptomycin, amphotericin B (Gibbco Cat # 15240062).
CHO-K1 Complete Media - HF12 Version is the same as the CHO-K1 Complete Media, DMEM Version (complete medium), except that Ham's F-12 was used as the base media. Cell Plating 2 Reagent (CPR2) - Eurofins DiscoverX Assay Complete Cell Plating 2 Reagent (Cat# 93-0563R2A). Lipofecamine LTX (Invitrogen™ Cat# 15338100). FuGENE 6 (Promega Cat# E2691). Bovine Albumin Fraction V, Fatty Acid Free: MP Biomedicals, Cat. 152401, Lot. S8210.
On Day 0, cryovial(s) containing the frozen cells (approx. 1.0E+6 cells/vial) stored in liquid nitrogen were removed and thawed in a 37°C water bath for 60 seconds and then diluted into fresh CHO-K1 Complete Media that was pre-warmed to 37°C. […]
Eurofins Assay Ready (division arrested) versions of the above hCRF-R1 and hCRF-R2 (hCRF-R1 and hCRF-R2 eXpress cell/assay kits) cells were removed from liquid nitrogen storage and thawed in a 37°C water bath for 30 seconds and then diluted into fresh Cell Plating 2 Reagent that was pre-warmed to 37°C. […]
cAMP was determined utilizing a DiscoverX HitHunter assay Enzyme Fragment Complementation (EF) technology purchased from Eurofins as described in the manufacturing instructions with some adjustments. IC50's were calculated from antagonist dose response curves utilizing interpolated cAMP levels and/or relative light unit (RLU) data. In addition, eXpress assay ready cAMP kits were also utilized with hCRF-R1 and hCRF-R2 division arrested cells according to the manufacturing instructions. […]
Background: cAMP levels reflect the balance of adenylyl cyclase and phosphodiesterase activity.

A short description of series [1]: Peptide pharmacokinetics, monkey study (IV and SC). The settings on record: Cyno. The procedure: Pharmacokinetics of the test peptides were evaluated in vivo as described herein. Male Sprague Dawley rats (300-450 g), male Beagle dogs (5-10 kg) and male cynomolgus monkeys (2-4 kg) were used in the pharmacokinetics (PK) study. All animal procedures were approved by the Institutional Animal Care and Use Committee at the Test Facility.
For IV dosing, compounds were administered by intravenous bolus injection into one of the two peripheral tail veins, at 0.1 mg/kg or 0.3 mg/kg in 0.01M phosphate (pH 7.4, 1 mg/mL). Following dosing, the catheter was flushed with 3 mL of saline prior to removal. For SC dosing, compounds were administered at the intra-scapular skin, at 0.3 mg/kg or 0.9 mg/kg in 0.01M phosphate (pH 7.4, 5 mg/mL). The SC injection site was prepared by clipping away the hair and cleaning with alcohol. After administration, the site was marked with a circle approximately 5cm in diameter.
Blood samples were collected into tubes with K2EDTA. Tubes were stored on wet ice until processed to plasma by centrifugation (2,200 x g at nominal 4°C for 10 minutes) within 60 minutes of collection. Plasma samples were transferred into individual uniquely labeled matrix tubes and stored at nominal -80°C until analysis by liquid chromatography tandem-mass spectrometry (LC-MS/MS).
The plasma samples were prepared by solid phase extraction (SPE) using a Waters PRiME HLB Microelution plate. The SPE plate was conditioned using water:methanol (50:50, v/v) and 0.5% tween 80 in water. After pretreated samples were loaded, wells were washed with 5% methanol in water and 0.1% TFA in water:acetonitrile (80:20, v/v). Wells were eluted with 0.1% formic acid, 0.5% 2,2,2-trifluoroethanol in water:acetonitrile (20:80, v/v) followed by a dilution with 0.1% formic acid, 0.1% tween 80 in water for analysis by LC-MS/MS. The analyte and internal standard (IS) were separated by reversed-phase chromatography using a Shimadzu Nexera X2 UHPLC system and Phenomenex bioZen Peptide PS-C18 50x2.1-mm, 3µm column. The analyte and IS were detected using an Applied Biosystems Sciex API 6500 triple quadrupole mass spectrometer. The mass spectrometer was equipped with an electrospray ionization source operated in the positive-ion mode. The analyte and internal standard were monitored in the multiple-reaction-monitoring scan mode.
Noncompartmental pharmacokinetic parameters were calculated using Phoenix® WinNonlin® software (Version 8.3; Linear Up Log Down Interpolation Calculation Method; Certara L.P.).

As to “Ac-Asp-Leu-Thr-D-Phe-His-Leu-Leu-Arg-Glu-Val-Leu-Glu-Nle-K*-Arg-Glu-Glu-Gln-cVal-Ala-Gln-E#-Ala-Glu-K#-Asn-Arg-Lys-Leu-Nle-Glu-cVal-Ala-CONH2”, the IC50 at hCRF-R1 (read-out: CRFR1 (IC50 nM) BSA (0.1%), BSA (0.1%)) was 98 nM. Moreover, the IC50 at hCRF-R1 (read-out: CRFR1 (IC50 nM) No Albumin, No Albumin) is 3.5 nM. Further, the IC50 at hCRF-R1 (read-out: CRFR1 IC50 in BSA, assay buffer containing 0.1% BSA, agonist hCRF 1 nM) was found to be 98 nM. Moreover, in series [1] (IV dose 0.1 mg/kg), the “IV CL” value was determined as 18.7 mL/day/kg, the “IV Vd” value is reported as 0.056 L/kg and the “IV t1/2” value turned out to be 48.2 h. Besides, in series [1] (SC Dose 0.3 mg/kg), the “SC AUC” value came to 275 µg·h/mL, the “SC Cmax” value is on record as 2490 ng/mL, the “SC Tmax” value turned out to be 56 h and the “SC t1/2” value was 102 h. Further, the “SC F” value in series [1] (SC Dose 0.3 mg/kg, IV dose 0.1 mg/kg) was 79%.

The IC50 is the concentration that gives 50% inhibition.
